Experimental findings from US9732085B2, “Pyridinone and pyrimidinone derivatives as factor Xia” (ONO PHARMACEUTICAL CO., LTD., priority 2011, dated 2017) are described below.

The chains behind the UniProt entries cited, without tags or fusion partners. Residues count along the entry.
UniProt P03951, 19-387 partner: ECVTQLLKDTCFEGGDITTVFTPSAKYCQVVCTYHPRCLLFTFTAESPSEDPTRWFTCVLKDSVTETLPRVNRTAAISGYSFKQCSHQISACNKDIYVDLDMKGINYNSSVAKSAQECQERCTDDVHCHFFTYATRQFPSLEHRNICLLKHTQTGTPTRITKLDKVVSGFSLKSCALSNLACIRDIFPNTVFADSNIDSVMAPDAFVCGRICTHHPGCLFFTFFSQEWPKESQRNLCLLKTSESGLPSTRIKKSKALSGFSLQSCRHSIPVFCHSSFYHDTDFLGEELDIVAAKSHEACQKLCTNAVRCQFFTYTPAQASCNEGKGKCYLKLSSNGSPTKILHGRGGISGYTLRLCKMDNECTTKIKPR
UniProt P03951, 388-625: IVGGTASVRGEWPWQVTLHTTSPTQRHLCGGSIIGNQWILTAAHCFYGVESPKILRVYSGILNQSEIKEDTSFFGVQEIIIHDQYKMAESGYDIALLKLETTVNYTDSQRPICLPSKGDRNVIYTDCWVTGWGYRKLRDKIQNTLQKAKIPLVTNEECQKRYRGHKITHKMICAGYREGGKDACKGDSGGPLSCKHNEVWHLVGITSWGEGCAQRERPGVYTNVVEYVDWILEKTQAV

As usually defined, the IC50 is the midpoint of a concentration-inhibition curve.

The assay deals with Human Factor XIa (Homo sapiens (Human), UniProt P03951). The assay is described as follows: Factor XIa enzyme activity (chromogenic substrate S-2366). The class given is biochemical. The note with it: human Factor XIa 0.1 U/mL, 300 μM S-2366, pH7.4; read-out: In vitro FXIa inhibitory activity IC50. Here is the method: Inhibitory activities of compounds of the present invention against factor XIa, Xa, XIIa, IXa, VIIa, plasma kallikrein or thrombin were evaluated using appropriate purified proteases and synthetic substrates. The rate of hydrolysis of the chromogenic substrate by the relevant protease was continuously measured at 405 nm.
Inhibitory activity against each enzyme was calculated as % inhibition using the equation described below. % Inhibition=[[(rate without compound)−(rate with compound)](rate without compound)]×100%. Each half maximal inhibitory concentration (IC50) value was determined by plotting the concentration of compound of the invention against the % inhibition. (1-1) Factor XIa Enzyme Activity
Human Factor XIa (Haematologic Technologies Inc.) activity was measured at an enzyme concentration of 0.1 U/mL in 150 mM NaCl, 5 mM KCl, 1 mg/mL PEG6000, 50 mM HEPES-NaOH (pH7.4) with 300 μM S-2366 (pyroGlu-Pro-Arg-pNA, Chromogenix).

Molecules are shown by their SMILES.

As to `COC(=O)Nc1ccc(-c2cnc([C@@H]3CCc4cc(-c5cc(Cl)ccc5-n5cc(Cl)nn5)cc(=O)n43)[nH]2)cc1` [Example 310, methyl[4-(2-{(3S)-7-[5-chloro-2-(4-chloro-1H-1,2,3-triazol-1-yl)phenyl]-5-oxo-1,2,3,5-tetrahydro-3-indolizinyl}-1H-imidazol-5-yl)phenyl]carbamate], the IC50 was 4.9 nM.
